The target of the experiment is recombinant human AChE (Homo sapiens, UniProt P22303). The experiment is described as follows: biochemical.

Protein sequences, listed by entry. Tags and fused reporters are not part of them. Residues count along the entry.
UniProt P22303, 32-614: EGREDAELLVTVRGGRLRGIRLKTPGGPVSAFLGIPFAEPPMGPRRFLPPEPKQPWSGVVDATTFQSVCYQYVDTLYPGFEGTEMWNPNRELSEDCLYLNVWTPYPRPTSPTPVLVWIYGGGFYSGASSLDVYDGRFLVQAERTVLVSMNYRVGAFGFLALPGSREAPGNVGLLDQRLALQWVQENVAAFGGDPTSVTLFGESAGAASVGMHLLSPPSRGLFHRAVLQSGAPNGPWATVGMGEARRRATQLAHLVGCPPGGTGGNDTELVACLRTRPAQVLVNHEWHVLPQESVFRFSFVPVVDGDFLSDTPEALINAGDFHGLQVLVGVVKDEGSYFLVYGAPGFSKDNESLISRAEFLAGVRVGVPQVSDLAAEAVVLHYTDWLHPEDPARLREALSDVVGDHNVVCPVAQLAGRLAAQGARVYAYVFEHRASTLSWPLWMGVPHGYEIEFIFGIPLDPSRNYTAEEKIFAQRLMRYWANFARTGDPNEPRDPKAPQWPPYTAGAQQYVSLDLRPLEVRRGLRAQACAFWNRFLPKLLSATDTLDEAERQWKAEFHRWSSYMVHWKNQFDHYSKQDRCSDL

Usually IC50 stands for the concentration at which inhibition is half-maximal. `CCCCCCCCCCC[C@@H](C[C@@H]1OC(=O)[C@H]1CCCCCC)OC(=O)[C@H](CC(C)C)NC=O` [Orlistat]: the IC50 is 1010 nM.

Source of the values: article PMC8637366 (Slas Discovery, 2021).
